Test results published in patent US20240156825A1, “USE OF SELECTIVE VEGFR2 AND FGFR1 INHIBITORS” (Fountain Therapeutics Inc., priority 2022, published 2024).

By UniProt entry, the sequences of proteins in these tests, tags left out. Residues count along the entry.
UniProt P35968, 20-1356, species assumed: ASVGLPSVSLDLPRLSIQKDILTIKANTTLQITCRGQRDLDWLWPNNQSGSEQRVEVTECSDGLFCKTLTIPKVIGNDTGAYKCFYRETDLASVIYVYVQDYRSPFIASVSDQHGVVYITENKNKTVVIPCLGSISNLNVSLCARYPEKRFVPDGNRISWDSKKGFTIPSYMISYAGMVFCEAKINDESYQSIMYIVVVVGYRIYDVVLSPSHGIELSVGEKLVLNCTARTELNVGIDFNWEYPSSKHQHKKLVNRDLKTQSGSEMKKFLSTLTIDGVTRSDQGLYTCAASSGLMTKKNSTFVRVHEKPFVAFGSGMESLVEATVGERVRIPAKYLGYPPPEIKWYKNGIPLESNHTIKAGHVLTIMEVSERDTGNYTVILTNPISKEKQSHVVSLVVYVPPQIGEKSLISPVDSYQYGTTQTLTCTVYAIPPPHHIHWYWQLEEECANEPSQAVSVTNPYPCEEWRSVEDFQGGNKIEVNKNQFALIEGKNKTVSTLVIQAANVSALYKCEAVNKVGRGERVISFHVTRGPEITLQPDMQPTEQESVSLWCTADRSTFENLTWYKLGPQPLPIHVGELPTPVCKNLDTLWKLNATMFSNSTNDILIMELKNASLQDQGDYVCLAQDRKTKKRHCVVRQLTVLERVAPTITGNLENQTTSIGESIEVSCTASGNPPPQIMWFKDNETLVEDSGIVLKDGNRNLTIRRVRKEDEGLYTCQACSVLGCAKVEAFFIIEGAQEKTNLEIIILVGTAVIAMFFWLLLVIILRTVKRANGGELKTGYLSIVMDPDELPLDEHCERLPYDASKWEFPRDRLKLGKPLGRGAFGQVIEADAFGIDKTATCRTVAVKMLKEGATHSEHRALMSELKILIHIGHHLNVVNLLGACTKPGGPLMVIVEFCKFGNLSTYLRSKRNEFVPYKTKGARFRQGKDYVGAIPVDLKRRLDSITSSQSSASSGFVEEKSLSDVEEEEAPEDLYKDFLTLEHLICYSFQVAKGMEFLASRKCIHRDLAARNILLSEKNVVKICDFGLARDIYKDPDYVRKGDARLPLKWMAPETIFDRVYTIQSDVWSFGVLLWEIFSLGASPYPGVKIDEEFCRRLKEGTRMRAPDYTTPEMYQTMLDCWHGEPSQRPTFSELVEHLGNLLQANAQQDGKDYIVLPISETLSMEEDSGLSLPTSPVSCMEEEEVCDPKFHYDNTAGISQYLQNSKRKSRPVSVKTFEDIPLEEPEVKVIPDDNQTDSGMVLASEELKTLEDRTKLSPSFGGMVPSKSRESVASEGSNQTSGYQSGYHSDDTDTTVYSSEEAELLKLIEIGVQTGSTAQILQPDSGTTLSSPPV

Columns and labels:
VEGFR2 [1] = target: T1, VEGFR2 (Homo sapiens, UniProt P35968); conditions: reported IC50 to VEGFR2, read-out: VEGFR2 IC50_μM, cited from earlier work
VEGFR2 [2] = target: T1, VEGFR2; conditions: relative IC50: reported IC50 toward VEGFR2 divided by next lowest reported IC50 to any gene target
[3] = Table 3, selective inhibitors of VEGFR2

SMILES | IC50 (VEGFR2 [1]; [3]) | further results
COc1cc2nccc(Oc3ccc4c(C(=O)Nc5ccc(Cl)cc5)cccc4c3)c2cc1OC [compound 24757938] | – | IC50 (VEGFR2 [1]): 0.03 nM
COc1cc2c(Nc3ccc(Cl)c(Cl)c3F)ncnc2cc1OC[C@@H]1CN2CCCC[C@@H]2C(=O)N1 [compound 57802634] | 50 nM | –
Nc1c(C(=O)c2cc3ccccc3[nH]2)cnn1-c1ccc2[nH]ccc2c1 [compound 134146580, [5-Amino-1-(1H-indol-5-yl)pyrazol-4-yl]-(1H-indol-2-yl)methanone] | – | VEGFR2, rIC50 (VEGFR2 [2]): 0.5
COc1cc2c(Nc3ccc(Cl)c(Cl)c3F)ncnc2cc1OC[C@@H]1CN2CCCC[C@H]2C(=O)N1 [compound 57802612] | 50 nM | –

Where two headings read alike, the source gives them in different places.
